Results: ChEMBL document CHEMBL1134498, “Experimental and computational screening models for the prediction of intestinal drug absorption” (J Med Chem, 2001)
Only a part of the results on these compounds is given; other tests are left out.

What was measured:
[1] = Apparent permeability coefficient (Papp) (Caco-2 cell monolayer); assay type: ADME, cell-based; details: human
Homo sapiens = organism: Homo sapiens; assay: Cellular permeability (Pc) (Caco-2 cell monolayer); assay type: ADME

Structure (SMILES): CCC(=O)N(c1ccccc1)C1(COC)CCN(CCn2nnn(CC)c2=O)CC1
- Papp [1]: 83 ×10⁻⁶ cm/s
- Pc (Homo sapiens): 310 ×10⁻⁶ cm/s
